From patent publication US20050214899 come the findings set out here.

One series has as its target T1, MADWLTFQKKHI
T1 chain: MADWLTFQKKHI

The target of the next series is T2, MQDWLTFQKKHI
T2 chain: MQDWLTFQKKHI

B1: MetAP-M206T-Q233T (protein)
chain: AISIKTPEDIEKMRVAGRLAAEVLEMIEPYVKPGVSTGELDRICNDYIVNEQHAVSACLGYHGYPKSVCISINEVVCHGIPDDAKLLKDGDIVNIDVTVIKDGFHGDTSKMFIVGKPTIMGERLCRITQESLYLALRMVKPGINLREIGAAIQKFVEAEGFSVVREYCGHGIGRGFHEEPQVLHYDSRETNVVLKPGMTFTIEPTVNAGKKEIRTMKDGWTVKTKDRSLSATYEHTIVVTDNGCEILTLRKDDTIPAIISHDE
For B1, the results for the Specific activity (unit/mg) in the series with MADWLTFQKKHI and with MQDWLTFQKKHI were 1 unit/mg and 0.25 unit/mg, respectively.
